Values quoted from earlier work as cited in patent US20100190739A1, “Rapidly Dissolving Vitamin Formulation and Methods of Using the Same” (FLEMING AND COMPANY, PHARMACEUTICALS, priority 2008, published 2010).

How the values were obtained:
[1] = Institute of Medicine
[2] = long term intake

Intake resulting in impaired thyroid function [2]: 600 IU/day
Substance: Vitamin E
Tolerable upper limit [1]: 1500 IU/day
